Assay results as given in PubChem BioAssay AID686949 (The Scripps Research Institute Molecular Screening Center, 2013).
The list shows a part of the results, in another mix than the full data. The source made the active and inactive calls.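 Rule for the calls: active = activation, as change over the incubation, above the mean of all tested compounds plus 3 SD (cut at about 13% in these data); inactive = the rest.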

Chains of the proteins cited; added tags and fusions are not shown.
UniProt P49862, whole entry: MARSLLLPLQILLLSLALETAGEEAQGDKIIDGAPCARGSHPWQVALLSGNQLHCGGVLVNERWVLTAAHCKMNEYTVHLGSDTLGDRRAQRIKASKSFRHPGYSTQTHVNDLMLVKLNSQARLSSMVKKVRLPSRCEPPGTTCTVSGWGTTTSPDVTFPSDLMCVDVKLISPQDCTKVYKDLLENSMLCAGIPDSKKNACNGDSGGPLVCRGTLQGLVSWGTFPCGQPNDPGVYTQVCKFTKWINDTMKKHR

molecular target: Kallikrein-7 (Homo sapiens) (UniProt P49862); assay: activation of human kallikrein-7 proenzyme – biochemical, fluorescence intensity, triplicate, confirmation (AID 686949); conditions: purified proKLK7, EDANS-DABCYL substrate fluorescence; at 7 µM; hits give high values; scaled: vehicle 0, mature enzyme 100

How did the activation turn out when `Nc1ccc2c(ccc3cccnc32)n1.O=[N+]([O-])c1cc([N+](=O)[O-])c(O)c([N+](=O)[O-])c1` was run?
Its activation is inactive: 8.76%.
